Earlier results on 1 compound are cited in paper PMC3377386 (Pharmaceutical Research, 2011).

The structures appear in SMILES notation. Where a name gives a salt, the structure may show the parent alone.

For the series the following is noted: healthy human subjects, MN pre-treatment + transdermal naltrexone patch; cited from earlier work.

Consider `O=C1CC[C@@]2(O)[C@H]3Cc4ccc(O)c5c4[C@@]2(CCN3CC2CC2)[C@H]1O5` [NTX·HCl, naltrexone HCl], for which the “duration of higher (therapeutically relevant) naltrexone plasma levels” value is reported as “up to 72 h”.
